In PMC8698302, “An Antibacterial Peptide with High Resistance to Trypsin Obtained by Substituting D-Amino Acids for Trypsin Cleavage Sites” (Antibiotics, 2021):
Converted amounts (≈) assume the structure as drawn.

Tests used:
Format in all cases: cell-based
[1] = test system: Escherichia coli ATCC 25922; assay: Serum sensitivity assay (MIC)
Protocol: (§1) The serum sensitivities of the peptides were determined by an MIC assay as described previously. Bovine serum and rabbit plasma solutions of different concentrations (12.5%, 25%, 50% and 100%) were used as the diluent of the peptide, and the peptides were twice diluted and incubated at 37 °C for 1 h. After that, the reaction was terminated after treatment at 100 °C for 15 min and cooled to room temperature. The same volume of Escherichia coli ATCC25922 solution (10^5 CFU/mL) was incubated for 16 h at 37 °C. The change of MIC value was observed. This experiment was repeated three times.

[2] = test system: Escherichia coli ATCC 25922; assay: Plasma sensitivity assay (MIC); conditions: 37 °C 1 h, 100 °C 15 min, then MIC 16 h 37 °C, repeated three times
Protocol: as §1

[3] = test system: Escherichia coli ATCC25922; assay: Temperature sensitivity assay (MIC)
Protocol: The temperature and pH sensitivities of the peptides were determined by an MIC assay as described previously. For temperature sensitivity, the diluted peptide solution was incubated at 0 °C, 37 °C, 42 °C, 65 °C and 100 °C, respectively, for 30 min, then stopped heating and returned to room temperature. An equal volume of Escherichia coli ATCC25922 (10^5 CFU/mL) was added, and the mixture was incubated at 37 °C for 16 h. MIC values were observed. This experiment was repeated three times.

[4] = test system: Escherichia coli ATCC25922; assay: Physiological salt sensitivity assay (MIC)
Protocol: The peptide salt sensitivity was evaluated by measuring the MIC. The method is as previously described. The peptides were diluted in deionized water containing different salts, and then an equal volume of Escherichia coli ATCC25922 solution (10^5 cfu/mL) was added. The mixture was incubated at 37 °C for 16 h. The final physiological concentrations of these salts were 150 mM NaCl, 4.5 mM KCl, 6 μM NH4Cl, 1 mM MgCl2, 8 μM ZnCl2 and 4 μM FeCl3, respectively. This experiment was repeated three times.

[5] = test system: Escherichia coli ATCC 25922; assay: Trypsin resistance assay (MIC after trypsin treatment); conditions: repeated three times
Protocol: The effect of different concentrations of trypsin on the antimicrobial activity of peptides was tested using previously reported methods. Trypsin was prepared to the required concentration. In the sterile 96-well plates, the peptide was continuously twofold diluted to different concentrations in trypsin solution. The plates were incubated at 37 °C, and the incubation time was determined according to the experiment requirements. The peptide alone and protease alone were used as a control. Samples were taken at different times, heated at 100 °C for 15 min to inactivate the protease, and centrifuged at 13,000× g for 30 min to precipitate the protease. […] The indicator bacterium was Escherichia coli ATCC25922. This experiment was repeated three times.

[6] = test system: Escherichia coli ATCC25922; assay: pH sensitivity assay (MIC); conditions: then MIC 16 h 37 °C, repeated three times
Protocol: For pH sensitivity, we adjusted the diluent to pH 4.0, 6.0, 8.0 and 10.0 with HCl or NaOH, and then diluted the peptide with this diluent. The peptide solutions of different pH were incubated for 1 h, and then the pH of the reaction solution was neutralized by HCl or NaOH to terminate the reaction. An equal volume of Escherichia coli ATCC25922 (10^5 CFU/mL) was added, and the mixture was incubated at 37 °C for 16 h. MIC values were observed. This experiment was repeated three times.

For `CC[C@H](C)[C@H](NC(=O)CN)C(=O)NCC(=O)N[C@@H](C)C(=O)N[C@H](C(=O)N[C@@H](CC(C)C)C(=O)N[C@@H](CCCCN)C(=O)N[C@H](C(=O)N[C@@H](CC(C)C)C(=O)N[C@H](C(=O)N[C@H](C(=O)NCC(=O)N[C@@H](CC(C)C)C(=O)N1CCC[C@H]1C(=O)N[C@@H](C)C(=O)N[C@@H](CC(C)C)C(=O)N[C@H](C(=O)N[C@@H](CO)C(=O)N[C@@H](Cc1c[nH]c2ccccc12)C(=O)N[C@H](C(=O)N[C@@H](CCCCN)C(=O)N[C@@H](CCCNC(=N)N)C(=O)N[C@@H](CCCCN)C(=O)N[C@@H](CCCNC(=N)N)C(=O)N[C@@H](CCC(N)=O)C(=O)N[C@@H](CCC(N)=O)C(N)=O)[C@@H](C)CC)[C@@H](C)CC)[C@@H](C)O)[C@@H](C)O)C(C)C)C(C)C` [Melittin], which “MIC in the presence of serum, 12.5%” value ([1]; bovine serum 12.5% as diluent, 37 °C 1 h, 100 °C 15 min, then MIC 16 h 37 °C, repeated three times) is on record?
Its value is 32 µg/mL.

What about the “MIC in the presence of serum, 25%” value ([1]; bovine serum 25% as diluent, 37 °C 1 h, 100 °C 15 min, then MIC 16 h 37 °C, repeated three times) of the same compound?
The value was 64 µg/mL.

What about the “MIC in the presence of serum, 50%” value ([1]; bovine serum 50% as diluent, 37 °C 1 h, 100 °C 15 min, then MIC 16 h 37 °C, repeated three times) of the same compound?
Its value is 64 µg/mL.

What about the “MIC in the presence of serum, 100%” value ([1]; bovine serum 100% as diluent, 37 °C 1 h, 100 °C 15 min, then MIC 16 h 37 °C, repeated three times) of the same compound?
The value was greater than 128 µg/mL.

What about the “MIC, Control” value ([1]; control, in the absence of serum and plasma) of the same compound?
The value was 2 µg/mL (≈ 0.703 µM).

What about the “MIC in the presence of plasma, 12.5%” value ([2]; rabbit plasma 12.5% as diluent) of the same compound?
The value was greater than 128 µg/mL.

What about the “MIC in the presence of plasma, 25%” value ([2]; rabbit plasma 25% as diluent) of the same compound?
Its value is greater than 128 µg/mL.

And the “MIC in the presence of plasma, 50%” value ([2]; rabbit plasma 50% as diluent)?
Its value is greater than 128 µg/mL.

What about the “MIC in the presence of plasma, 100%” value ([2]; rabbit plasma 100% as diluent) of the same compound?
Its value is greater than 128 µg/mL.

And the “MIC, Control” value ([3]; control, determined at 37 °C and pH 7.4)?
The value was 2 µg/mL (≈ 0.703 µM).

What about the “MIC after temperature treatment, 0 °C” value ([3]; peptide solution incubated at 0 °C for 30 min, returned to room temperature, then MIC 16 h 37 °C, repeated three times) of the same compound?
The value was 2 µg/mL (≈ 0.703 µM).

What about the “MIC after temperature treatment, 42 °C” value ([3]; peptide solution incubated at 42 °C for 30 min, returned to room temperature, then MIC 16 h 37 °C, repeated three times) of the same compound?
The value was 2 µg/mL (≈ 0.703 µM).

And the “MIC after temperature treatment, 65 °C” value ([3]; peptide solution incubated at 65 °C for 30 min, returned to room temperature, then MIC 16 h 37 °C, repeated three times)?
Its value is 2 µg/mL (≈ 0.703 µM).

What about the “MIC after temperature treatment, 100 °C” value ([3]; peptide solution incubated at 100 °C for 30 min, returned to room temperature, then MIC 16 h 37 °C, repeated three times) of the same compound?
The value was 2 µg/mL (≈ 0.703 µM).

And the “MIC in the presence of FeCl3” value ([4]; 4 μM FeCl3 final, 10^5 cfu/mL, 37 °C 16 h, repeated three times)?
The value was 2 µg/mL.

What about the “MIC in the presence of NH4Cl” value ([4]; 6 μM NH4Cl final, 10^5 cfu/mL, 37 °C 16 h, repeated three times) of the same compound?
Its value is 2 µg/mL.

And the “MIC in the presence of ZnCl2” value ([4]; 8 μM ZnCl2 final, 10^5 cfu/mL, 37 °C 16 h, repeated three times)?
Its value is 2 µg/mL.

What about the “MIC in the presence of MgCl2” value ([4]; 1 mM MgCl2 final, 10^5 cfu/mL, 37 °C 16 h, repeated three times) of the same compound?
Its value is 2 µg/mL.

And the “MIC in the presence of KCl” value ([4]; 4.5 mM KCl final, 10^5 cfu/mL, 37 °C 16 h, repeated three times)?
The value was 2 µg/mL.

And the “MIC in the presence of NaCl” value ([4]; 150 mM NaCl final, 10^5 cfu/mL, 37 °C 16 h, repeated three times)?
Its value is 4 µg/mL.

What about the “MIC, Control” value ([4]; control, MHB medium without physiological salts) of the same compound?
Its value is 2 µg/mL.

And the “MIC, Control” value ([5]; control, in the absence of proteases)?
Its value is 2 µg/mL (≈ 0.703 µM).

And the “MIC in the presence of trypsin, 0.625 mg/mL” value ([5]; peptide incubated in trypsin 0.625 mg/mL at 37 °C (time not given), 100 °C 15 min, centrifuged, then MIC 16 h 37 °C)?
Its value is 16 µg/mL.

And the “MIC in the presence of trypsin, 1.25 mg/mL” value ([5]; peptide incubated in trypsin 1.25 mg/mL at 37 °C (time not given), 100 °C 15 min, centrifuged, then MIC 16 h 37 °C)?
The value was 32 µg/mL.

And the “MIC in the presence of trypsin, 2.5 mg/mL” value ([5]; peptide incubated in trypsin 2.5 mg/mL at 37 °C (time not given), 100 °C 15 min, centrifuged, then MIC 16 h 37 °C)?
Its value is 64 µg/mL.

And the “MIC in the presence of trypsin, 5 mg/mL” value ([5]; peptide incubated in trypsin 5 mg/mL at 37 °C (time not given), 100 °C 15 min, centrifuged, then MIC 16 h 37 °C)?
The value was greater than 128 µg/mL.

And the “MIC in the presence of trypsin, 10 mg/mL” value ([5]; peptide incubated in trypsin 10 mg/mL at 37 °C (time not given), 100 °C 15 min to inactivate, centrifuged 13,000 g 30 min, then bacteria 10^5 CFU/mL, 16 h 37 °C)?
The value was greater than 128 µg/mL.

And the “MIC after trypsin (10 mg/mL), 1 h” value ([5]; trypsin 10 mg/mL, 1 h at 37 °C, 100 °C 15 min, centrifuged, then MIC 16 h 37 °C)?
Its value is greater than 128 µg/mL.

What about the “MIC after trypsin (10 mg/mL), 2 h” value ([5]; trypsin 10 mg/mL, 2 h at 37 °C, 100 °C 15 min, centrifuged, then MIC 16 h 37 °C) of the same compound?
Its value is greater than 128 µg/mL.

What about the “MIC after trypsin (10 mg/mL), 4 h” value ([5]; trypsin 10 mg/mL, 4 h at 37 °C, 100 °C 15 min, centrifuged, then MIC 16 h 37 °C) of the same compound?
Its value is greater than 128 µg/mL.

What about the “MIC after pH treatment, pH4” value ([6]; peptide incubated 1 h at pH 4.0 (HCl/NaOH), neutralized) of the same compound?
The value was 2 µg/mL.

What about the “MIC after pH treatment, pH6” value ([6]; peptide incubated 1 h at pH 6.0, neutralized) of the same compound?
The value was 2 µg/mL.

And the “MIC after pH treatment, pH8” value ([6]; peptide incubated 1 h at pH 8.0, neutralized)?
Its value is 2 µg/mL.

What about the “MIC after pH treatment, pH10” value ([6]; peptide incubated 1 h at pH 10.0, neutralized) of the same compound?
The value was 2 µg/mL.
